Consider one molecule from US20230108492A1 (ONCOIMMUNE, published 2023).

For orientation: Kd means a measure of binding affinity in units of concentration. Low readings indicate a tighter complex, high ones a looser complex.

The test deals with control Fc. As to the kind of experiment: Biacore (SPR): control Fc in place of CD24Fc, Siglec-10Fc as analyte. The value is printed under the KD line inside the plot; no curve is drawn for the control. An excerpt:
To measure the interaction between CD24Fc and Siglec 10, we immobilized CD24Fc onto a CHIP and used Biacore to measure the binding of different concentrations of Siglec-10Fc. […] The interaction between CD24Fc and HMGB1 was confirmed by pull down experiments using CD24Fc-bound protein G beads followed by Western blot with either anti-IgG or anti-HMGB1. […] To determine whether CD24Fc is an agonist of Siglec G, the mouse counterpart of human Siglec 10, we stimulated CD24−/− spleen cells with CD24Fc, control Fc or vehicle (PBS) control for 30 minutes. Siglec G was then immunoprecipitated and probed with anti-phospho-tyrosine or anti-SHP-1.
A general note: SPR reads the build-up and loss of mass on a sensor chip optically.

B1: Siglec-10Fc (Fc fusion, human, UniProt Q96LC7 17-546, looked up)
chain: MDGRFWIRVQESVMVPEGLCISVPCSFSYPRQDWTGSTPAYGYWFKAVTETTKGAPVATNHQSREVEMSTRGRFQLTGDPAKGNCSLVIRDAQMQDESQYFFRVERGSYVRYNFMNDGFFLKVTALTQKPDVYIPETLEPGQPVTVICVFNWAFEECPPPSFSWTGAALSSQGTKPTTSHFSVLSFTPRPQDHNTDLTCHVDFSRKGVSAQRTVRLRVAYAPRDLVISISRDNTPALEPQPQGNVPYLEAQKGQFLRLLCAADSQPPATLSWVLQNRVLSSSHPWGPRPLGLELPGVKAGDSGRYTCRAENRLGSQQRALDLSVQYPPENLRVMVSQANRTVLENLGNGTSLPVLEGQSLCLVCVTHSSPPARLSWTQRGQVLSPSQPSDPGVLELPRVQVEHEGEFTCHARHPLGSQHVSLSLSVHYSPKLLGPSCSWEAEGLHCSCSSQASPAPSLRWWLGEELLEGNSSQDSFEVTPSSAGPWANSSLSLHGGLSSGLRLRCEAWNVHGAQSGSILQLPDKKGLIST
notes: Used as the analyte in Biacore at different concentrations; also called human Siglec 10; not shown: Fc part of Siglec-10Fc
On to B1, for which binding was characterised by a dissociation constant (Kd) of 16.2 µM.
